{"source": "patent US7307166B1", "about": "“Oxpurine nucleosides and their congeners, and acyl, derivatives thereof, for improvement of hematopoiesis” (Wellstat Therapeutics Corporation, priority 1987, dated 2007)", "molecules": {"B1": {"name": "IL3: recombinant IL-3, positive control in apoptosis assay (protein, UniProt P08700 20-152, looked up)", "Interleukin-3": "APMTQTTPLKTSWVNCSNMIDEIITHLKQPPLPLLDFNNLNGEDQDILMENNLRRPNLEAFNRAVKSLQNASAIESILKNLLPCLPLATAAPTRHPIHIKDGDWNEFRRKLTFYLKTLENAQAQQTTLSLAIF"}}, "tested_on": "IL-3-dependent bone marrow cells", "experiment": "Apoptosis of IL-3-dependent bone marrow cells deprived of IL-3 (trypan blue exclusion)", "type": "cell-based, mouse", "data": [{"molecule": "B1", "values": [{"measurement": "% Dead Cells", "setting": "24 hr after IL-3 wash, PdG or dG 10 micrograms per milliliter without IL-3, +IL3 = with IL-3", "result": "7.5 ± 12.5", "unit": "%"}, {"measurement": "% Dead Cells", "setting": "40 hr after IL-3 wash, 10 micrograms per milliliter", "result": "6.5 ± 1.5", "unit": "%"}, {"measurement": "% Dead Cells", "setting": "60 hr after IL-3 wash, 10 micrograms per milliliter", "result": "10.3 ± 1.9", "unit": "%"}, {"measurement": "% Dead Cells", "setting": "84 hr after IL-3 wash, 10 micrograms per milliliter", "result": "13.0 ± 4.0", "unit": "%"}]}]}
